# According to ChEMBL document CHEMBL1121943, “Benzeneacetamide amines: structurally novel non-m mu opioids” (1982):
# Active and inactive are the calls of the source. The rule behind the calls is not given here.
# Species: Mus musculus
# Test: Tested for effective dose required to produce narcotic stimulation in mice; not active
smiles,measurement,value
CN(C(=O)Cc1ccc(Cl)c(Cl)c1)C1CCCCC1N1CCCC1 (stereo unspecified),ED50,inactive
